Results reported in patent US20210015938A1.

Target: human tace resistant transmembrane TNF (hTNF delta 1-12; SEQ ID NO:1 lacking amino acids 77-88) on K562 GRE reporter cells (human) (UniProt P01375)
Assay: cell-based or functional assay

“ADC5 (anti-human TNFa antibody drug conjugate; adalimumab conjugated with a glucocorticosteroid drug linker, DAR 2)” was tested, and the hTNFa GRE EC50 was 0.03 µg/mL and the hTNFa GRE (% max) (scale: % max) was 126.
